# Source: paper PMC3896271 (Beilstein Journal of Organic Chemistry, 2013)
# Amino acid sequences for entries named in this document (tags omitted). A change or cut given only in a name is not applied to a line headed by its entry.
# UniProt P32300: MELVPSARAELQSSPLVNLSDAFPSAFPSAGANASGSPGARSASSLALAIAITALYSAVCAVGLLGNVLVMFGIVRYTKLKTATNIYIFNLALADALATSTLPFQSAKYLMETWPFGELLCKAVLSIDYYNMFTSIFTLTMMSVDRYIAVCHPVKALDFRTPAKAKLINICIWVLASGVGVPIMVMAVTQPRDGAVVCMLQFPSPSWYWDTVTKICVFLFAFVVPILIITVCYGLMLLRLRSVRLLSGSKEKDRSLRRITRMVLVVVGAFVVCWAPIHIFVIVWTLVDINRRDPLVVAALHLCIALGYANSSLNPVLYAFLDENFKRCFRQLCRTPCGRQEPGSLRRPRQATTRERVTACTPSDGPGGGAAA
# Biological target: mouse δ opioid receptor (Mus musculus, UniProt P32300)
# Conditions: 3 μM, positive controls
substance,measurement,value
SNC80,displacement of [3H]diprenorphine,> 90%
